This note sets out measurements from ChEMBL document CHEMBL3997776, “Oxime Ethers of (E)-11-Isonitrosostrychnine as Highly Potent Glycine Receptor Antagonists” (J Nat Prod, 2016).

Sequences of proteins named here, by UniProt entry; tags and fusion partners are left off. Residues count along the entry.
UniProt P23415, 29-457 limits assumed: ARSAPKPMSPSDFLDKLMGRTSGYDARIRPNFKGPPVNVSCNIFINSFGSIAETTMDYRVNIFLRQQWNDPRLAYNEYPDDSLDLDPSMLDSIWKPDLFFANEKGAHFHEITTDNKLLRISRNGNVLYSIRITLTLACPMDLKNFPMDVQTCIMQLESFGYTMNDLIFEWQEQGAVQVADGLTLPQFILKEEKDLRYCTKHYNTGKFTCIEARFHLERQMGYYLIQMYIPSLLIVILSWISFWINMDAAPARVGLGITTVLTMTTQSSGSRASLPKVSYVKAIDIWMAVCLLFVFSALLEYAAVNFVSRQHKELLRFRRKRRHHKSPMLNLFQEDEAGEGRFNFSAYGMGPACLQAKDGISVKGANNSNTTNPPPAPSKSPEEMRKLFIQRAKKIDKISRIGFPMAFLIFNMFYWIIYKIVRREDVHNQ
UniProt P48167, 23-497 limits assumed: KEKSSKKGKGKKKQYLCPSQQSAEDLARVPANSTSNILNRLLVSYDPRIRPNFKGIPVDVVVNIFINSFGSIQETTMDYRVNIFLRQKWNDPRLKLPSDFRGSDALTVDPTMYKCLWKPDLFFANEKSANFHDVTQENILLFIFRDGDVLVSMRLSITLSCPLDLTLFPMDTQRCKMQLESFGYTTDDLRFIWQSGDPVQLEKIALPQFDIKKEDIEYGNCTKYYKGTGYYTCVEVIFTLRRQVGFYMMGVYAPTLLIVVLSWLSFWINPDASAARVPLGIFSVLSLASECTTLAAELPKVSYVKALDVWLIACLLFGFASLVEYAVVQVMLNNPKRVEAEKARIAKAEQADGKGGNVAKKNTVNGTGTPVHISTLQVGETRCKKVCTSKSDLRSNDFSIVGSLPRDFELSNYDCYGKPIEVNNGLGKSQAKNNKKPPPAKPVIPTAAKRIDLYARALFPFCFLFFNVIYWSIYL

The target of experiment [1] is T1, Glycine receptor subunit alpha-1 (Homo sapiens, UniProt P23415). As to the kind of experiment: Antagonist activity at recombinant human glycine receptor alpha 1 expressed in human tsA201 cells assessed as inhibition of glycine-induced receptor activation after 30 mins by FLIPR membrane potential blue assay.
Experiment [2] addresses T2, Glycine receptor (alpha-1/beta) (Homo sapiens, UniProt P23415+P48167). Briefly: Antagonist activity at recombinant human glycine receptor alpha 1 beta expressed in human tsA201 cells assessed as inhibition of glycine-induced receptor activation after 30 mins by FLIPR membrane potential blue assay.
For experiment [3], the target named is T1, Glycine receptor subunit alpha-1. Briefly: Antagonist activity at recombinant human glycine receptor alpha 1 expressed in HEK293 cells assessed as inhibition of glycine-induced current at -50 mV holding potential by whole cell patch-clamp method.
For experiment [4], the target named is T2, Glycine receptor (alpha-1/beta). As to the kind of experiment: Antagonist activity at recombinant human glycine receptor alpha 1 beta expressed in HEK293 cells assessed as inhibition of glycine-induced current at -50mV holding potential by whole cell patch-clamp method.
In experiment [5] the target is T1, Glycine receptor subunit alpha-1. As to the kind of experiment: Displacement of [3H]strychnine from recombinant human glycine receptor alpha 1 expressed in HEK293 cell membranes after 30 mins by liquid scintillation counting method.

For `O=C1/C(=N/O)[C@@H]2OCC=C3CN4CC[C@]56c7ccccc7N1[C@H]5[C@H]2[C@H]3C[C@H]46`, the IC50 in experiment [1] is 97 nM; in experiment [2], 210 nM; in experiment [3], 82 nM; in experiment [4] it was 80 nM. The Ki in experiment [5] was found to be 40 nM.
